The chains behind the UniProt entries cited, without tags or fusion partners.
UniProt P35372, whole entry: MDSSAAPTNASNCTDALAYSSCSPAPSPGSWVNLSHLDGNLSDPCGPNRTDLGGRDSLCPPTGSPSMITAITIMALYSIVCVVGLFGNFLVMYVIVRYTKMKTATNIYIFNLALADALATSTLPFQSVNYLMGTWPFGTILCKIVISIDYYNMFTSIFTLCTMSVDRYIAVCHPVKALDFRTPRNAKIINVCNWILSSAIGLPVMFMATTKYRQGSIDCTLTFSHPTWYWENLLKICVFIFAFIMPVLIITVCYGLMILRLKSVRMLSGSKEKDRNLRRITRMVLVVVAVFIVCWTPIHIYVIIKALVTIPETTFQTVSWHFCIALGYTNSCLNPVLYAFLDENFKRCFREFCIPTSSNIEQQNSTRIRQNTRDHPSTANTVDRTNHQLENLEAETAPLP

According to patent publication US6713488B2 (priority 2000, dated 2004):

How the values were obtained:
[1] = target: T1, human MOR (Homo sapiens, UniProt P35372); assay type: biochemical
T1 construct: FLAG (N); expressed in transfected cells; host or cells: HEK 293

[2] = target: T1, human MOR; assay type: cell-based
[3] = target: T2, μ opioid receptor (Homo sapiens, UniProt P35372); assay type: binding
T2 construct: FLAG (N); expressed in transfected cells

[4] = target: T1, human MOR; assay type: biochemical; details: read-out: IC50 for inhibiting morphine-stimulated 35S-GTPγS binding

| SMILES | effect on basal 35S-GTPγS binding activity [1] | effect on forskolin stimulated cAMP levels [2] | Ki [3] | % inhibition of inverse agonistic effect of C-CAM [1] | % inhibition of inverse agonistic effect of β-CNA [1] | IC50 [4] |
| --- | --- | --- | --- | --- | --- | --- |
| Oc1ccc2c3c1O[C@H]1[C@H](O)CC[C@@]4(O)[C@@H](C2)N(CC2CC2)CC[C@]314 [6α-Naltrexol, 6α-naltrexol] | no significant effect | no effect | 0.53 ± 0.04 nM | – | – | – |
| Oc1ccc2c3c1O[C@H]1[C@H](O)CC[C@@]4(O)[C@@H](C2)N(CC2CC2)CC[C@]314 [6β-Naltrexol, 6β-naltrexol] | no significant effect | no effect | 0.8 ± 0.21 nM | 91±9% | 68±17% | 18 ± 1 nM |
